Results: patent US20080226596A1, “Therapeutic compositions and methods useful in treating hepatitis” (priority 2006, published 2008)

System: WM9 cells
Assay: WM9 melanoma cell growth, MTT assay
Format: cell-based, human
Conditions: day 6
Procedure: For cell proliferation assays, cells were grown in 10% FCS culture medium containing various amounts of IFNs and/or sodium stibogluconate in 96 well plates and cultured at 37° C. for 3 or 6 days as indicated. The numbers of viable cells in proliferation assays were determined by MTT assays as described in Phatak et al., J. Immunol. 167, 3391 (2001).
Median effect analysis (Chou et al., Adv. Enzyme Regul. 22, 27 (1984)), which provides the most general form of studying the interactions between drugs, was utilized to analyze the interaction between sodium stibogluconate and IFN-alpha or IFN-beta. Dose response curves were generated for each drug alone, and also the combinations. Median effect plots were generated for IFNs alone, sodium stibogluconate alone, and the combination. The combination index (CI) was determined and plotted vs. fraction affected (FA). Data were analyzed in both modes, mutually exclusive and mutually nonexclusive. The interaction between two mutually nonexclusive drugs is described by the Equation CI=D1/Dx1+D2/Dx2+D1D2/Dx1Dx2, where Dx1 and Dx2 are the doses of drug 1 and drug 2 that are required to inhibit growth x %. […] When CI<1, drugs are synergistic, when CI=1, drugs are additive, and when CI>1, drugs are antagonistic. […]

B1: IFN-beta: Recombinant human IFN-beta (protein, UniProt P01574 22-187, looked up)
Interferon beta: MSYNLLGFLQRSSNFQCQKLLWQLNGRLEYCLKDRMNFDIPEEIKQLQQFQKEDAALTIYEMLQNIFAIFRQDSSSTGWNETIVENLLANVYHQINHLKTVLEEKLEKEDFTRGKLMSSLHLKRYYGRILHYLKAKEYSHCAWTIVRVEILRNFYFINRLTGYLRN
growth of WM9 cells with IFN alone: more potently
